Source: US8119168B2, “Personal care compositions comprising a zinc containing material in an aqueous surfactant composition” (The Procter & Gamble Company, priority 2002, dated 2012)

Assay: Zincon metallochromic dye test for available Zn^2+ (visual color change orange to blue)
Format: physicochemical
Settings: ZCM ~30 mg/10 ml water, pH 7-11, binary visual assessment
Excerpt: Zinc-containing materials (ZCMs) differ with respect to how strongly the zinc ion (Zn^2+) is held by counterions in the crystal lattice. The benefits discussed herein depend upon having available Zn^2+. […] The response is a binary visual assessment of whether or not the color changes indicating zinc-binding.
The method is based on the commercial metallochromic dye zincon. Zincon changes from an orange color to blue upon binding zinc and provides the basis for detecting available Zn^2+:
The specific procedure involves making a stock solution of zincon in ethanol (˜50 mg/10 ml ethanol). The ZCM is then added to water (˜30 mg/10 ml water) and agitated (pH range should be 7-11). Three to four drops of zincon solution are then added to the ZCM in water, agitated and a visual assessment of color change made.

zinc salicylate
available Zn^2+ (zincon color change): have available zinc
